Source: PMC2874645 (Aquatic toxicology (Amsterdam, Netherlands), 2010)

Target: T1, farnesoid X receptor alpha (Fxrα) (Oryzias latipes, UniProt H2M6M7)
T1 sequence (H2M6M7 201-485): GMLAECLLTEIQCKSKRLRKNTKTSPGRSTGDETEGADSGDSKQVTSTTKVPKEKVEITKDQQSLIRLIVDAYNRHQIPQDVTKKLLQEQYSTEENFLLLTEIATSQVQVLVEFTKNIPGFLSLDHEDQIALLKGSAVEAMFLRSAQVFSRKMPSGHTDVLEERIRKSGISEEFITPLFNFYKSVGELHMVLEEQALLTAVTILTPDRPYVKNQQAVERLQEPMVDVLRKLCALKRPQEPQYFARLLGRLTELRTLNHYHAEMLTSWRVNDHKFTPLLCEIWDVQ
T1 sequence (Q9UBK2 1-798 partner): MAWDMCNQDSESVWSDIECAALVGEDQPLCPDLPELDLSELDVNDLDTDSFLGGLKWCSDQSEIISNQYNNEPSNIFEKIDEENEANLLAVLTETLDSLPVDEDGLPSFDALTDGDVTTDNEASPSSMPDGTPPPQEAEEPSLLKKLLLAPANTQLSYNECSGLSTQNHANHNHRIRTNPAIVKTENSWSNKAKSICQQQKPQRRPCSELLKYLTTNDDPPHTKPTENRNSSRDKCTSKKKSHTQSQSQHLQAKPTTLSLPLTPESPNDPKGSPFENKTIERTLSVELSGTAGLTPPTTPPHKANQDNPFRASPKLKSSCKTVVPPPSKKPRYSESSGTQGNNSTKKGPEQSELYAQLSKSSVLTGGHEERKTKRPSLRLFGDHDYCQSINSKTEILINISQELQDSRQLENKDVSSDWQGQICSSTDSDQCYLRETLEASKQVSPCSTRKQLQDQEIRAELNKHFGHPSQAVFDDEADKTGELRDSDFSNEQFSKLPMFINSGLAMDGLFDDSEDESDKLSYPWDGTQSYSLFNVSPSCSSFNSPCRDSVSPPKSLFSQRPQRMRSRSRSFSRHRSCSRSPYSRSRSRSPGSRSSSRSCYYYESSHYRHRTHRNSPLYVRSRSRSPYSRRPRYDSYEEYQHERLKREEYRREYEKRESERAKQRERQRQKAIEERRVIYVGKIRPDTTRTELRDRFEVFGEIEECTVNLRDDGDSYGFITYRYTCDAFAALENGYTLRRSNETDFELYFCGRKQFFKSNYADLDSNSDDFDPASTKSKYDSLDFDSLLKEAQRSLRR
Assay: Gal4-LBD luciferase reporter in PLHC-1 cells at […]
Conditions: read-out: Gal4-LBD luciferase reporter in PLHC-1 cells at 100 μM

C[C@H](CCC(=O)NCCS(=O)(=O)O)[C@H]1CC[C@H]2[C@@H]3[C@H](O)C[C@@H]4C[C@H](O)CC[C@]4(C)[C@H]3CC[C@]12C [tauro-CDCA] gave a fold induction at 100 µM of 3.15.
